These results are taken from US20100311718A1, “Treatment of Psychoses with Dibenzothiazepine Antipsychotic” (AstraZeneca AB, priority 2004, published 2010).

The structures appear in SMILES notation. Counter-ions that a name gives are not always drawn. Like-named read-outs stand apart in the source and are kept apart here. Marks after values point to notes of the source that are not given here.

Assay [1] relates to patients with bipolar depression. Conditions: Week 8 LOCF.
Assay [2] has the same test system. Conditions: Bipolar II, ITT population.
Assay [3] has the same test system. The following applies: Week 8 LOCF, 300 mg.

For `OCCOCCN1CCN(C2=Nc3ccccc3Sc3ccccc32)CC1` [quetiapine, 2-[2-(4-dibenzo [b,f] 1,4]thiazepin-11-yl-1-piperazinyl)ethoxy]-ethanol fumarate], the “Sleep component: Sleep efficiency, Mean (SD)” value in assay [1] (300 mg) is recorded as 0.6 (1.0); in assay [1] (600 mg), 0.7 (1.1). In addition, the results for the “Change in MADRS, Mean (SD)” value in assay [2] (300 mg/day) and in assay [2] (600 mg/day) were −15.2 (10.2) and −13.9 (10.2), respectively. Besides, the “Q-LES-Q change (Δ), Mean (SD)” value in assay [3] was 10.2 (10.7)*.
